Test [1] addresses recombinant human delta opioid receptor (Homo sapiens, UniProt P41143). The note with it: GTP-γS binding, screened up to 10 μM in agonist and antagonist mode.
The target in test [2] is T1, cloned human kappa opioid receptor (Homo sapiens, UniProt P41145).
T1 construct: expressed in transfected cells; host or cells: CHO cells
In words: cell-based.

Protein sequences, listed by entry. Tags and fused reporters are not part of them. Lines headed by an entry give the natural chain unless they say otherwise; changes in a name come on top.
UniProt P41143, whole entry: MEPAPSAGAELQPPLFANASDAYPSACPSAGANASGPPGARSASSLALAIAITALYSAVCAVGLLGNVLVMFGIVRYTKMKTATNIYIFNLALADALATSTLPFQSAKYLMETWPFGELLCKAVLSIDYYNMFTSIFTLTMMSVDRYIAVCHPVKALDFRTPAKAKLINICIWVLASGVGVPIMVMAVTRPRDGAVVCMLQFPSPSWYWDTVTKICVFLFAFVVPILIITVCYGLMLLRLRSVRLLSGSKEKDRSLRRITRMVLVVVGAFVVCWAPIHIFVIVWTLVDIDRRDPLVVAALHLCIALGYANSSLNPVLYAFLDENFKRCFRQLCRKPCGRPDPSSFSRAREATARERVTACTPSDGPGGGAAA
UniProt P41145: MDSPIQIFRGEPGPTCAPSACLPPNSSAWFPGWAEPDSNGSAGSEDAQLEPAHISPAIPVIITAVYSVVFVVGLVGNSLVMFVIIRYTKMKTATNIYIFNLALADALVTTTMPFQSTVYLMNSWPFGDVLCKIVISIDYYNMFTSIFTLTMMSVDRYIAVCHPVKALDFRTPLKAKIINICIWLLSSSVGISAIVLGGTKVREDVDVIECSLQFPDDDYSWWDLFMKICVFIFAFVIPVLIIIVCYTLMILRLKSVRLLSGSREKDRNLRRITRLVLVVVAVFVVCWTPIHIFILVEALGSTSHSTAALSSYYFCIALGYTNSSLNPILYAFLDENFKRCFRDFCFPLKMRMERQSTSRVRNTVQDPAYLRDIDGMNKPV

One may read the EC50 as the concentration needed to bring the measured effect to its halfway point. Low values mean higher potency in that assay, high ones lower potency in that assay.

The structures appear in SMILES notation.

With `COCCOCCOCCOCCOCCOCCOCCOCCOCCOC1CCC2(O)C3Cc4ccc(O)c5c4C2(CCN3CC2CCC2)C1O5` (centres unmarked) [6-O-mPEG9-Nalbuphine, 6-O-mPEG9-nalbuphine], in test [1], the “effect at the delta opioid receptor” value is listed as “weak antagonistic”.

In the case of `COc1ccc2c3c1O[C@H]1[C@@H](O)C=C[C@H]4[C@@H](C2)N(C)CC[C@@]341` [Codeine, codeine, reference compound], the EC50 in test [2] is greater than 500 µM.

These data come from US8569343B2, “Oligomer-opioid agonist conjugates” (Nektar Therapeutics, priority 2007, dated 2013).
